Experimental data published in article PMC6598159 (ACS Central Science, 2019).

Legend:
[1] = Stability in mouse liver microsomes; format: in vitro ADME; conditions: 2 μM, 40 min, in words
[2] = Stability in human liver microsomes; format: in vitro ADME; conditions: 2 μM, 40 min, in words

[2H]C([2H])([2H])OC=C(C(=O)OC([2H])([2H])[2H])C1CC2c3[nH]c4cccc(OC([2H])([2H])[2H])c4c3CCN2CC1CC (centres unmarked) [mitragynine-d9]
stability in MLM [1]: unchanged
stability in HLM [2]: unchanged
